B2AR arrestin = agonists driving beta-arrestin recruitment to human beta2-adrenergic receptor; P07550; beta-arrestin recruitment to beta2AR, cell-based reporter; Potency, µM (titrated, usually from 46.1 µM), inactives show at the highest dose activation, most hits filed as activators; 330,000 compounds, 0.02% hits; AID 492947;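 further: potency means the concentration at half of the fitted maximal effect; 0% = DMSO controls and full agonism = EC100 isoproterenol or metaproterenol; nearly all actives have a fitted effect of over 65% in size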
Nrf2 activator = activates Nrf2 signaling; 410,000 compounds, 0.31% hits; AREc32 ARE-luciferase reporter (MCF7-derived line), luminescence, 24 h; Potency, µM (series often up to 46.1 µM), for the others: at the highest dose activation, usual class: activators; AID 624171; further: potency means the concentration at half of the fitted maximal effect; % of control where 0% means no effect; nearly all actives have a fitted effect of over 65% in size
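Steps: seed AREc32_Fluc cells (1000/well, 5% FBS OPTI-MEM); incubate overnight at 37 deg C; add 23 nL compound; incubate 24 hr; add Steady-Glo; hold 30 min RT; read luminescence.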
miR-21 reporter = miR-21 reporter, rising signal | Potency, µM (highest dose often 38.3 µM), for inactives: at the highest dose reporter change, positive = more light | 340,000 tested, under 10 active | HeLa miR-21 FLuc reporter, luciferase, 48 h; active = well fitted rising curve with a large enough effect; inconclusive = small, poorly fitted or top-dose-only effect; inactive = no such curve, though single readings can be large or run the other way;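 note: % of control where 0% means no effect; miR-21 action dims this reporter so a rising signal means less miR-21 action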
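Luminescence from a firefly luciferase reporter carrying a miR-21 binding site downstream, stably expressed under a CMV promoter in HeLa cells that make miR-21 endogenously, reports miRNA modulation after 48 h compound exposure up to approximately 40uM final.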
Nrf2 inh = inhibitors of Nrf2 signaling; A549 ARE-Fluc reporter, luciferase luminescence, 18-24 h; Potency, µM (doses to about 46 µM), for the others: at the top dose activity change, negative = inhibition, actives largely listed as inhibitors; 360,000 compounds, 2.1% hits; AID 504444; further: potency means the concentration at half of the fitted maximal effect; on the % scale 0 is the no-effect control and ±100 the full control effect; nearly all actives have a fitted effect of over 60% in size
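In this cell-based qHTS, ARE-driven firefly luciferase in A549 cells reports Nrf2 activity; the luminescent signal after BugLite lysis is the measured value, with a prior CellTiter-Fluor read for cell health.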
A549 tox-1 = kills or reduces viability of A549 cells in Nrf2 counter-screen; A549 ARE-Fluc cells, CellTiter-Fluor viability, 18-24 h; Potency, µM (doses to about 46 µM), for the others: top-dose activity change, negative = cytotoxicity, hits mostly inhibitors; 390,000 compounds, 0.16% hits; AID 504648; further: potency means the concentration at half of the fitted maximal effect; on the % scale 0 is the no-effect control and ±100 the full control effect
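Cytotoxicity counterscreen: CellTiter-Fluor fluorescence was measured in A549 ARE_Fluc cells after 18-24 h of compound exposure in a concentration series. The subsequent BugLite luminescent read reports ARE-luciferase activity.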
FLuc counter 3 = counter-screen for Nrf2 inhibitors: firefly luciferase enzyme inhibition; AID 720522; purified firefly luciferase, luminescence inhibition; Potency, µM (series often up to 57.5 µM), for inactives: at the top dose activity change, negative = inhibition, hits mostly inhibitors; shares compounds with Nrf2 inh; 1,400 compounds, 4% hits; further: potency means the concentration at half of the fitted maximal effect; on the % scale 0 is the no-effect control and ±100 the full control effect; nearly all actives have a fitted effect of over 65% in size
A549 tox-2 = A549 cytotoxicity, Nrf2 inhibitor counterscreen; 1,400 compounds, 2% hits; AID 720523; A549 ARE-Fluc cells, cytotoxicity counterscreen; Potency, µM (highest dose often 46.1 µM), inactives show top-dose activity change, negative = cytotoxicity, hits mostly inhibitors; shares compounds with Nrf2 inh;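 further: potency means the concentration at half of the fitted maximal effect; cells exposed to compounds for 18 to 24 hours; on the % scale 0 is the no-effect control and ±100 the full control effect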
Nrf2 ARE inh = reduces Nrf2 ARE reporter signal in A549 cells; shares compounds with Nrf2 inh; A549 ARE-firefly luciferase reporter, luminescence; Potency, µM (titrated, usually from 46.1 µM), for inactives: at the top dose activity change, negative = inhibition, usual class: inhibitors; 1,400 compounds, 74% hits; AID 720524; further: potency means the concentration at half of the fitted maximal effect; on the % scale 0 is the no-effect control and ±100 the full control effect; nearly all actives have a fitted effect of over 65% in size
* = called active by the depositor; [ ] = remark or other dose. The list is not random: actives were taken first. Their share in the collection is about 2.2%. Unless noted, the call rests on the fitted dose curve; in most records, active means well fitted curve in the direction sought with a large enough effect; inconclusive means small, poorly fitted or top-dose-only effect, or another doubt; inactive means no such curve, though single readings can be large; an effect the other way counts as inactive or inconclusive.

For O=C(c1cncc(Br)c1)N1CCN(S(=O)(=O)c2ccc3ccccc3c2)CC1 the results were B2AR arrestin 0%, Nrf2 activator 2%, Nrf2 inh inconclusive and A549 tox-1 1%.
`Cn1c(-c2ccccc2)c(P(=S)(c2ccccc2)c2ccccc2)c2ccccc21` gave Nrf2 inh 13% and A549 tox-1 -1%.
Cn1c(=O)oc2cc(S(=O)(=O)CCC(=O)NCCc3ccccc3)ccc21 was read as B2AR arrestin 0%, Nrf2 activator 1%, miR-21 reporter -7%, Nrf2 inh inconclusive and A549 tox-1 -4%.
For Cn1c(=O)oc2cc(NC(=O)CCl)ccc21 the results were B2AR arrestin 1%, Nrf2 activator 7.9µM*, miR-21 reporter inconclusive, Nrf2 inh inconclusive and A549 tox-1 -28%.
Screening O=C(c1ccccc1)c1ccc2nc(N3CCN(c4ccc(F)cc4)CC3)c3nncn3c2c1 returned Nrf2 activator -1%, miR-21 reporter 0%, Nrf2 inh inconclusive and A549 tox-1 0%.
For CCN(CCCl)c1cc(CN(C)C)cc(NC(=O)c2ccc(C(=O)Nc3cc(CN(C)C)cc(N(CC)CCCl)c3)cc2)c1 the results were Nrf2 activator -3%, Nrf2 inh 2.9µM* and A549 tox-1 13µM*.
CCN(CC)C(=O)c1ccc(NC(=O)c2cccc(C(F)(F)F)c2)cc1 was read as B2AR arrestin 0%, Nrf2 activator 1%, miR-21 reporter -13%, Nrf2 inh -19% and A549 tox-1 0%.
`COc1ccc(C(=O)NCCn2cc(SCc3ccc(C(F)(F)F)cc3)c3ccccc32)cc1OC` gave Nrf2 activator 0%, miR-21 reporter inconclusive, Nrf2 inh 18µM* and A549 tox-1 -20%.
Screening CCn1cc(C(=O)NCCc2ccc(OC)c(OC)c2)c(=O)c2cc(S(=O)(=O)N(C)C3CCCCC3)ccc21 returned Nrf2 activator 0%, miR-21 reporter 22%, Nrf2 inh inconclusive and A549 tox-1 -19%.
`O=S(=O)(c1ccc(Cl)cc1)N1CCC(n2cnc3cc(C(F)(F)F)ccc32)CC1` gave Nrf2 activator 3%, Nrf2 inh inconclusive and A549 tox-1 -11%.

Three compounds out of the list, sorted by molar mass, low to high.
`Cn1c(-c2ccccc2)c(P(=S)(c2ccccc2)c2ccccc2)c2ccccc21` gave Nrf2 inh 13% and A549 tox-1 -1%.
`O=S(=O)(c1ccc(Cl)cc1)N1CCC(n2cnc3cc(C(F)(F)F)ccc32)CC1` gave Nrf2 activator 3%, Nrf2 inh inconclusive and A549 tox-1 -11%.
`COc1ccc(C(=O)NCCn2cc(SCc3ccc(C(F)(F)F)cc3)c3ccccc32)cc1OC` gave Nrf2 activator 0%, miR-21 reporter inconclusive, Nrf2 inh 18µM* and A549 tox-1 -20%.

The list goes on.
CNc1ccc2oc(C[C@H]3O[C@@]4(CC[C@H]3C)O[C@H]([C@H](C)C(=O)c3ccc[nH]3)[C@H](C)C[C@H]4C)nc2c1C(=O)O was read as B2AR arrestin 0%, Nrf2 activator -3%, miR-21 reporter inconclusive, Nrf2 inh 1.2µM* and A549 tox-1 3.7µM*.
Screening CCN(CC)c1ccc(NC(=O)c2cccc(C)c2)cc1S(=O)(=O)Nc1ccccc1OC returned B2AR arrestin -1%, Nrf2 activator 0%[9.22 µM], miR-21 reporter 0%, Nrf2 inh inconclusive and A549 tox-1 9%.
COC(=O)C1C(=O)C=C(Nc2ccc(F)cc2F)CC1c1ccccc1 (centres undefined) was read as B2AR arrestin -1%, Nrf2 activator 3%, miR-21 reporter -51%, Nrf2 inh inconclusive and A549 tox-1 4%.
Screening O=C(CCS(=O)(=O)c1ccccc1)Nc1nnc(-c2ccco2)o1 returned B2AR arrestin -1%, Nrf2 activator inconclusive, miR-21 reporter 7%, Nrf2 inh 11% and A549 tox-1 -4%.
For COc1ccc(-[n+]2c(-c3ccccc3)cc(-c3ccc(C)cc3)cc2-c2ccccc2)cc1 the results were B2AR arrestin 0%, Nrf2 activator 0%, miR-21 reporter inconclusive, Nrf2 inh 21µM* and A549 tox-1 inconclusive.
For Cc1ccccc1-[n+]1c(-c2ccccc2)cc(-c2ccccc2)cc1-c1ccccc1 the results were B2AR arrestin 0%, Nrf2 activator -1%, Nrf2 inh 12µM* and A549 tox-1 inconclusive.
For COc1ccc(-c2cc(-c3ccccc3)[n+](C)c(-c3ccccc3)c2)cc1 the results were B2AR arrestin -1%, Nrf2 activator 6%, miR-21 reporter inconclusive, Nrf2 inh inconclusive and A549 tox-1 inconclusive.
Screening COc1cc(-c2nc3ccc(Cl)cn3c2Nc2ccc3c(c2)OCCO3)ccc1O returned Nrf2 activator 20%, miR-21 reporter 6%, Nrf2 inh inconclusive and A549 tox-1 -18%.
Screening O=P(O)(O)c1ccccc1OCCOCCOCCOCCOc1ccccc1P(=O)(O)O returned B2AR arrestin 0%, Nrf2 activator 3%, miR-21 reporter -42%, Nrf2 inh inconclusive and A549 tox-1 3%.
For c1ccc2nc3ccccc3nc2c1 the results were B2AR arrestin -2%, Nrf2 activator 4%, miR-21 reporter 1%, Nrf2 inh 21µM* and A549 tox-1 inconclusive.
Screening COc1ccc(CCNc2nccn(-c3ccc(C)c(C)c3)c2=O)cc1OC returned Nrf2 activator -1%, miR-21 reporter 2%, Nrf2 inh inconclusive and A549 tox-1 -19%.
COc1ccc(CCNc2nc3c(c(=O)n(C)c(=O)n3C)n2Cc2ccc(F)cc2)cc1OC was read as Nrf2 activator 5%, miR-21 reporter 30%, Nrf2 inh 16µM* and A549 tox-1 -14%.
O=C(Nc1ccc2nc(SCC(=O)N3CCCc4ccccc43)sc2c1)c1cccc(F)c1 was read as Nrf2 activator 1%, miR-21 reporter 30%, Nrf2 inh inconclusive and A549 tox-1 -2%.
`CC(=O)O[C@H]1[C@H]2O[C@]23[C@@H]2CC[C@]4(O)C[C@@H](O)CC[C@]4(C)C2CC[C@]3(C)[C@H]1c1ccc(=O)oc1` (some centres undefined) gave B2AR arrestin 0%, Nrf2 activator -5%, Nrf2 inh 0.058µM* and A549 tox-1 inconclusive.
For C[C@@H]1O[C@@H](O[C@@H]2C=C3CC[C@@H]4[C@@H](CC[C@]5(C)[C@H](c6ccc(=O)oc6)CC[C@@]45O)[C@@]3(C)CC2)[C@H](O)[C@H](O)[C@H]1O the results were FLuc counter 3 2%, A549 tox-2 inconclusive and Nrf2 ARE inh 0.01µM*.

Assay outcomes: PubChem BioAssay, National Center for Advancing Translational Sciences (NCATS)
